Laboratory results: patent US20250034159A1, “INHIBITORS OF EPIDERMAL GROWTH FACTOR RECEPTOR” (ORIC Pharmaceuticals, Inc., priority 2021, published 2025)
pIC50: −log10 of the molar value.

Chains of the proteins cited; added tags and fusions are not shown. A line that says so, or that is headed by a name, gives the form on record, which may keep a tag or linker. Residues count along the entry.
UniProt P00533, 25-1210 C797S/L858R: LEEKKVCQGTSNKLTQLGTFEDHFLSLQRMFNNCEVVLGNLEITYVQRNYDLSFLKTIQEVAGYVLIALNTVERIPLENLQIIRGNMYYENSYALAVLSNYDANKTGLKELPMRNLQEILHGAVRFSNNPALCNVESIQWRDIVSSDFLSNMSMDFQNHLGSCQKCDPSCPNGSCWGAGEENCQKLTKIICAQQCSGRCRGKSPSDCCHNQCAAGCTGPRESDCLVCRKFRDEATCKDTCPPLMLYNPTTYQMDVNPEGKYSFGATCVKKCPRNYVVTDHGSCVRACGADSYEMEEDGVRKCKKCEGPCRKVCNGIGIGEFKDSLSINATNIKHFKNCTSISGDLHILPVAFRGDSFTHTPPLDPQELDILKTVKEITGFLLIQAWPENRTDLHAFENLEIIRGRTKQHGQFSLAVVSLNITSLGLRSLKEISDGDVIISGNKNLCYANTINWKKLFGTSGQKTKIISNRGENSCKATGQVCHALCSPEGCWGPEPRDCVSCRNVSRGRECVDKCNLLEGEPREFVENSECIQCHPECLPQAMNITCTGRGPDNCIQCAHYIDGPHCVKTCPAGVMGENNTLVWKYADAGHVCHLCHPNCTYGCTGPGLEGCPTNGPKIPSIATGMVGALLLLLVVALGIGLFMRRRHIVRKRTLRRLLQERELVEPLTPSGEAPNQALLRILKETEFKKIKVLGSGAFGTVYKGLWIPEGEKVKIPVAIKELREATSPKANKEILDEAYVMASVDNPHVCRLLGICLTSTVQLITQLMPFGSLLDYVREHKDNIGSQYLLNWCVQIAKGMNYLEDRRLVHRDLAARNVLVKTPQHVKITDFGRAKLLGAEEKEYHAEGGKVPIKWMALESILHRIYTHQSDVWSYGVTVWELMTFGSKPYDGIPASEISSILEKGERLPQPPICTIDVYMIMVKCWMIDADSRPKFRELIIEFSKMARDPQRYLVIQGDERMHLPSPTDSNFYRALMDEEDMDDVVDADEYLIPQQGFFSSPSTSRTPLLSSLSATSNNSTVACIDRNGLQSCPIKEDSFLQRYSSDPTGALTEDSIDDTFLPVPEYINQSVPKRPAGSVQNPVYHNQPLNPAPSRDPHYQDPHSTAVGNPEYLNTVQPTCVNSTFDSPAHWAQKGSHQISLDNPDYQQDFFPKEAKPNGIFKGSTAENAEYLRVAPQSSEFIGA
UniProt P00533, other isoform, or with tags, fused parts or gaps C797S/del 1-668/del 746-750 limits assumed: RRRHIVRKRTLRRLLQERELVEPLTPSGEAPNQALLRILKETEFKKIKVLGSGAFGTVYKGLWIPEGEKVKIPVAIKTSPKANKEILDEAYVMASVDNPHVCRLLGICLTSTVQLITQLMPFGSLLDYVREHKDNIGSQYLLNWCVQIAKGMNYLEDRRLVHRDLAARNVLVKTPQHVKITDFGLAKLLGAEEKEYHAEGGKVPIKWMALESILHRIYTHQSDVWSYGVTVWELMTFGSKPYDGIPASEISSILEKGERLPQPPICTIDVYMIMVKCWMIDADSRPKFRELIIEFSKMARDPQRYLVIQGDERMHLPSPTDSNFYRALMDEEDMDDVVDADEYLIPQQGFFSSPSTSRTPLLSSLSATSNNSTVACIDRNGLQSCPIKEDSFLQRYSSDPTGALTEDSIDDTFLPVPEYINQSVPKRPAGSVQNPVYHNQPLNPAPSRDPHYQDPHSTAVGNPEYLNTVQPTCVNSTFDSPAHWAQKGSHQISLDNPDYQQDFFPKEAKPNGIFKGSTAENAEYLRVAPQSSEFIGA

Legend:
[1] = target: recombinant human EGFR L858R/C797S double mutant protein (Homo sapiens (Human), UniProt P00533, C797S/L858R); test: Biological Activity Assay B: biochemical assay against EGFR L858R/C797S protein (EGFR LR/CS)
Procedure: (§1) In Row A of a 384-well polypropylene plate, was added 48 μL of DMSO. In wells A1 and A24, were added 12 μL of DMSO. […] To a well in Row A were added 12 μL of each 10 mM test compound stock (100% DMSO). […] The final intermediate dilution plate contained 4×16-point compound serial dilutions in assay buffer. The DMSO concentration was 10%. The intermediate compound dilution plate was transferred to the Bravo and the “5 uL dispense into ARP.pro” protocol was run. To the black low volume assay ready plates, were added 5 μL of 40 uM Phosphosens peptide sensor/4 mM ATP working solution to each well. […] To column 24, was added 10 μL of assay buffer. The final DMSO concentration was 2.5%. […] The plates were sealed with the TopSeal-A Plus plate seals. […] Set for 90 cycles with 120 second interval. […] The slope of each curve was constructed using Dotmatics in each well, and each IC50s was calculated using a 4-parameter fit model.

[2] = target: recombinant human EGFR exon 19 deletion/C797S double mutant protein (Homo sapiens (Human), UniProt P00533, C797S/DEL746-750); test: Biological Activity Assay C: biochemical assay against EGFR exon 19 deletion/C797S protein (EGFR d19/CS)
Procedure: as §1

Structure (SMILES) | pIC50 [1] | pIC50 [2]
Cn1cc(-c2ncnc3oc(-c4ccccc4)cc23)c(-c2ccc(F)cc2)n1 [Example 63, 4-[3-(4-Fluorophenyl)-1-methyl-1H-pyrazol-4-yl]-6-phenylfuro[2,3-d]pyrimidine] | 9.32 | 9.34
[2H]C([2H])([2H])n1cc(-c2ncnc3oc(-c4ccccc4)cc23)c(-c2ccc(F)cc2)n1 [Example 48, 4-[3-(4-Fluorophenyl)-1-(2H3)methyl-1H-pyrazol-4-yl]-6-phenylfuro[2,3-d]pyrimidine] | 9.40 | 9.43
